PubChem BioAssay AID411 (National Center for Advancing Translational Sciences (NCATS), 2006)
This is a selection; strong and weak results do not stand in their true shares. Some tests of the compounds listed are not included; inactive here does not mean inactive elsewhere. Calls of active or inactive are those of the source. Calls come from the whole dose curve; as a rule, active = well fitted inhibition curve with a large enough effect; inconclusive = small, poorly fitted or top-dose-only effect; inactive = flat fitted curve, though single readings scatter.

Protein sequences, listed by entry. Tags and fused reporters are not part of them.
UniProt P08659, whole entry: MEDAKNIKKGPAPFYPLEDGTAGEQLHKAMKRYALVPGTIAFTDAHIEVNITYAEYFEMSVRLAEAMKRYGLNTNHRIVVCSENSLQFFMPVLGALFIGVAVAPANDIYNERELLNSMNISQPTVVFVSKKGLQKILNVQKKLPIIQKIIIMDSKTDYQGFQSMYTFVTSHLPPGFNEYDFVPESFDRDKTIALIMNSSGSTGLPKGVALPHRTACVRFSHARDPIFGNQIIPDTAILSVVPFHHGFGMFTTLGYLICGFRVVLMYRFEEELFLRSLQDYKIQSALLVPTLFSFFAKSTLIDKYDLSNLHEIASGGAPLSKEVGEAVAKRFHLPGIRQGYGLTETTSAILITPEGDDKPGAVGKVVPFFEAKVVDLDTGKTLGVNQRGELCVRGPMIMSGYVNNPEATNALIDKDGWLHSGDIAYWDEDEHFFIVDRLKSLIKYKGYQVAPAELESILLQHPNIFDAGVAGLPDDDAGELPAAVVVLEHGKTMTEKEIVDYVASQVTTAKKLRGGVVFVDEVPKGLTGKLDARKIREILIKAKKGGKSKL

These compounds were tested against Luciferin 4-monooxygenase (Photinus pyralis) (UniProt P08659) (assay: qHTS Assay for Inhibitors of Firefly Luciferase). Conditions: purified firefly luciferase, luminescence, 8 min; at 11.4 µM (top of the series) unless noted.
Protocol: To aid in the interpretation of high-throughput screening (HTS) results derived from luciferase-based assays, we used quantitative HTS, an approach that defines the concentration-response behavior of each library sample, to profile the ATP-dependent luciferase from Photinus pyralis against more than 72 000 samples. Luciferase (PKLight, Cambrex Corporation) was assayed for its ability to generate light using ATP and luciferin as substrates. The ATP concentration in the assay (10 uM) was within the linear range of enzyme activity for the assay conditions used. See following reference for further details: [1] Auld DS, Southall NT, Jadhav A, Johnson RL, Diller DJ, Simeonov A, Austin CP, Inglese J. Characterization of chemical libraries for luciferase inhibitory activity. J Med Chem. 2008 Apr 24;51(8):2372-86. Auld DS, Zhang YQ, Southall NT, Rai G, Landsman M, Maclure J, Langevin D, Thomas CJ, Austin CP, Inglese J. A Basis for Reduced Chemical Library Inhibition of Firefly Luciferase Obtained from Directed Evolution. J. Med. Chem., 2009, 52 (5), pp 1450#1458 [3] Auld DS, Thorne N, Nguyen DT, Inglese J. A specific mechanism for nonspecific activation in reporter-gene assays. ACS Chem Biol. 2008 Aug 15;3(8):463-70. Auld DS, Thorne N, Maguire WF, Inglese J. Mechanism of PTC124 activity in cell-based luciferase assays of nonsense codon suppression. Proc Natl Acad Sci U S A. 2009 Mar 3;106(9):3585-90. Inglese J, Auld DS, Jadhav A, Johnson RL, Simeonov A, Yasgar A, Zheng W, Austin CP. Quantitative high-throughput screening: a titration-based approach that efficiently identifies biological activities in large chemical libraries. Proc Natl Acad Sci U S A. 2006 Aug 1;103(31):11473-8.
Four uL of substrate mix (final concentration, 50 mM imidazole pH 7.2, 50 mM KCl, 7 mM MgCl2, 10 uM ATP, 0.01% Tween 20, 0.05% BSA) was dispensed into white 1536 well plates. Twenty-three nL of compound was delivered by a pin tool and 2 uL of luciferase detector mix (PKLight, Cambrex) was added. Following 8-minute incubation at ambient temperature, luminescence was measured by a ViewLux (Perkin Elmer) at 5 seconds exposure/plate.
% is set by controls: 0 for no effect and ±100 for the full control effect.
Note: nearly all actives have a fitted effect of over 40% in size.

Row | SMILES | activity change, negative = inhibition
1 | C=C(C)C#C[C@@](O)(C(=O)OC1CCN(C)CC1)c1ccccc1 | inactive: 2.5%
2 | O=C(OC1CN2CCC1CC2)C(CO)(c1ccccc1)c1ccccc1 (stereo not given) | inactive: 0.0751% [at 57.1 µM]
3 | CN1CC[C@H](OC(=O)[C@](O)(c2ccccc2)C2CCCC2)C1 | inactive: 6.51%
4 | CN1CCC[C@H](OC(=O)[C@](O)(c2ccccc2)C2CCCC2)C1 | inactive: 2.8%
5 | CN(C)c1cccc(C(=O)NCC2(N(C)C)CCCCC2)c1 | inactive: 3.12% [at 57.1 µM]
